# Experimental data taken from US10112929B2, “Lactams as inhibitors of rock” (BRISTOL-MYERS SQUIBB COMPANY, priority 2015, dated 2018).
# Sequences of proteins named here, by UniProt entry; tags and fusion partners are left off.
# UniProt O75116, whole entry, species assumed: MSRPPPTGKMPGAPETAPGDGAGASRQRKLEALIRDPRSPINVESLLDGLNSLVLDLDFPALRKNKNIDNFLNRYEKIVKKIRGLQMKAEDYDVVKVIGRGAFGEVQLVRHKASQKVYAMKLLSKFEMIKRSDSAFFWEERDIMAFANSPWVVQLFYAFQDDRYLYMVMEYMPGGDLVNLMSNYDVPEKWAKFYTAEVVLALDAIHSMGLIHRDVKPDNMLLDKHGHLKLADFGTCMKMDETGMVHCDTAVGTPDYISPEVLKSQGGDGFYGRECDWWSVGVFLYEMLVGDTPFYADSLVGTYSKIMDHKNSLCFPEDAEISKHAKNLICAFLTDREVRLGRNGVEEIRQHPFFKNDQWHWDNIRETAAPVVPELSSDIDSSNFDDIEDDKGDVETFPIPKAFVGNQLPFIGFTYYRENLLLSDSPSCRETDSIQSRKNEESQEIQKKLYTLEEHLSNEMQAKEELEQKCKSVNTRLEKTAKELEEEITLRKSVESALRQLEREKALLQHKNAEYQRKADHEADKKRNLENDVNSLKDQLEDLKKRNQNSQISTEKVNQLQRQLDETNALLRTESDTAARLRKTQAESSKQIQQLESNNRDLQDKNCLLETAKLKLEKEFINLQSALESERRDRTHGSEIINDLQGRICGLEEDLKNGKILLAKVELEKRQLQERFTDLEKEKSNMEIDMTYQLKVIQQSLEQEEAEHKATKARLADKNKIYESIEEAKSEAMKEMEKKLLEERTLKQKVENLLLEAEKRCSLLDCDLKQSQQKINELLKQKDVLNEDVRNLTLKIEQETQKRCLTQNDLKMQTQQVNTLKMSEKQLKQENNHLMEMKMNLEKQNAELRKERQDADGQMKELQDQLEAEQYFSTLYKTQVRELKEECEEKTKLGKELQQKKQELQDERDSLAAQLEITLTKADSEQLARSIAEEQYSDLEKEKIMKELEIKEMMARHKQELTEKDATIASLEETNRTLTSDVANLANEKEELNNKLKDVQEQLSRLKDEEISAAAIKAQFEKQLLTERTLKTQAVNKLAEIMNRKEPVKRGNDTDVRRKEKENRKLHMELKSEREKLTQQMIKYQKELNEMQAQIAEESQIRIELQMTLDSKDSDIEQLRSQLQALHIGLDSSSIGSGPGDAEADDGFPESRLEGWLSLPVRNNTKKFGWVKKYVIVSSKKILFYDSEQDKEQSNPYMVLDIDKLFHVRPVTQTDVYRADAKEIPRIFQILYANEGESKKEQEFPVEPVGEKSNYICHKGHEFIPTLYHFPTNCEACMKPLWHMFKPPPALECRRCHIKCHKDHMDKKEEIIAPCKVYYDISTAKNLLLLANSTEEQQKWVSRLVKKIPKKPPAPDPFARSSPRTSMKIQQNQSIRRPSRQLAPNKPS
# Target: ROCK2 (Homo sapiens (Human), UniProt O75116)
# Test: biochemical
# 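Note: rho kinase enzyme reaction halted with EDTA, phospho- and non-phospho peptide separated for read-out, kinase activity inhibition derived across a dose-response series, DMSO under 2%.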
compound,measurement,value
"COc1ccc(F)cc1NC1CCN(c2ccc(-c3cn[nH]c3)c(OC)c2)C1=O (single isomer, unassigned) [Example 148, 3-((5-fluoro-2-methoxyphenyl)amino)-1-(3-methoxy-4-(1H-pyrazol-4-yl)phenyl) pyrrolidin-2-one]",IC50,10 to 100 nM
